Literature values as cited in PubChem BioAssay AID977610.
One block for each molecule: values may come before it.

How the values were obtained:
Assay in all cases: PubChem AID 977610
[1] = target: rice BGlu1 Beta-glucosidase E176Q mutant; settings: PDB protein-ligand complexes, literature Ki, protein: rice BGlu1 Beta-glucosidase E176Q mutant
[2] = target: N-terminal Human Maltase-Glucoamylase; settings: PDB protein-ligand complexes, literature Ki, protein: N-terminal Human Maltase-Glucoamylase
[3] = target: trypsin beta; settings: PDB protein-ligand complexes, literature Ki, protein: trypsin beta
[4] = target: glutamate [nmda] receptor; settings: PDB protein-ligand complexes, literature Ki, protein: glutamate [nmda] receptor
[5] = target: penicillopepsin; settings: PDB protein-ligand complexes, literature Ki, protein: penicillopepsin
[6] = target: glycogen phosphorylase; settings: PDB protein-ligand complexes, literature Ki, protein: glycogen phosphorylase
[7] = target: orotidine 5'-monophosphate decarboxylase; settings: PDB protein-ligand complexes, literature Ki, protein: orotidine 5'-monophosphate decarboxylase
[8] = target: Orotidine 5-phosphate decarboxylase; settings: PDB protein-ligand complexes, literature Ki; protein: Orotidine 5-phosphate decarboxylase; PDB entry 2ZZ1
[9] = target: Ribulose bisphosphate carboxylase; settings: PDB protein-ligand complexes, literature Ki, protein: Ribulose bisphosphate carboxylase
[10] = target: mta/sah nucleosidase; settings: PDB protein-ligand complexes, literature Ki, protein: mta/sah nucleosidase
[11] = target: thrombin alpha; settings: PDB protein-ligand complexes, literature Ki, protein: thrombin alpha
[12] = target: chymotrypsin gamma; settings: PDB protein-ligand complexes, literature Ki, protein: chymotrypsin gamma
[13] = target: NEURAMINIDASE A; settings: PDB protein-ligand complexes, literature Ki; protein: NEURAMINIDASE A; PDB entry 2YA8
[14] = target: thymidylate synthase; settings: PDB protein-ligand complexes, literature Ki, protein: thymidylate synthase
[15] = target: protocatechuate 3,4-dioxygenase; settings: PDB protein-ligand complexes, literature Ki; protein: protocatechuate 3,4-dioxygenase; PDB entry 3PCB
[16] = target: purine nucleoside phosphorylase; settings: PDB protein-ligand complexes, literature Ki, protein: purine nucleoside phosphorylase
[17] = target: Alpha-isopropylmalate synthase; settings: PDB protein-ligand complexes, literature Ki, protein: Alpha-isopropylmalate synthase
[18] = target: arginase 1; settings: PDB protein-ligand complexes, literature Ki, protein: arginase 1
[19] = target: HIV-1 protease; settings: PDB protein-ligand complexes, literature Ki, protein: HIV-1 protease

Ki ([1]; PDB entry 3F5J): 52 µM
SMILES: OC[C@H]1O[C@@H](O[C@H]2[C@H](O)[C@@H](O)[C@H](O[C@H]3[C@H](O)[C@@H](O)[C@H](O[C@H]4[C@H](O)[C@@H](O)[C@H](O)O[C@@H]4CO)O[C@@H]3CO)O[C@@H]2CO)[C@H](O)[C@@H](O)[C@@H]1O

Ki ([2]; PDB entry 3L4W): 1 µM
SMILES: OCCN1C[C@H](O)[C@@H](O)[C@H](O)[C@H]1CO

Ki ([3]; PDB entry 1V2N): 1.25 µM
SMILES: N=C(N)c1ccc(/C=C2/CCCC/C(=C/c3ccc(C(=N)N)cc3)C2=O)cc1

Ki ([4]; PDB entry 1Y1Z): 831 µM
SMILES: NC1(C(=O)O)CCC1

Ki ([5]; PDB entry 1BXQ): 0.042 µM
SMILES: COC(=O)[C@H](Cc1ccccc1)OP(=O)(O)[C@H](CC(C)C)NC(=O)[C@H](CC(N)=O)NC(=O)[C@@H](NC(=O)CC(C)C)C(C)C

Ki ([3]; PDB entry 1PPH): 1.2 µM
SMILES: Cc1ccc(S(=O)(=O)N[C@@H](Cc2cccc(C(=N)N)c2)C(=O)N2CCCCC2)cc1

Ki ([6]; PDB entry 2PRJ): 32 µM
SMILES: CC(=O)N[C@@H]1O[C@H](CO)[C@@H](O)[C@H](O)[C@H]1O

Ki ([4]; PDB entry 1Y1M): 15300 µM
SMILES: NC1(C(=O)O)CCCC1

Ki ([7]; PDB entry 1X1Z): 0.0088 nM
Ki [8]: 29 µM
SMILES: O=C1CC(=O)N([C@@H]2O[C@H](COP(=O)(O)O)[C@@H](O)[C@H]2O)C(=O)N1

Ki ([9]; PDB entry 3AXK): 70 µM
SMILES: NC(=O)C1=CN([C@@H]2O[C@H](COP(=O)(O)OP(=O)(O)OC[C@H]3O[C@@H](n4cnc5c(N)ncnc54)[C@H](OP(=O)(O)O)[C@@H]3O)[C@@H](O)[C@H]2O)C=CC1

Ki ([6]; PDB entry 1K06): 4.6 µM
Ki ([6]; PDB entry 1K08): 4.6 µM
SMILES: O=C(NC(=O)c1ccccc1)N[C@@H]1O[C@H](CO)[C@@H](O)[C@H](O)[C@H]1O

SMILES: OC[C@@H]1[C@@H](O)[C@H](O)[C@H]2[C@H](O)[C@@H](O)CN21
Ki ([2]; PDB entry 3CTT): 0.45 µM

Ki ([4]; PDB entry 1PBQ): 0.54 µM
SMILES: O=C(O)c1cc(=O)c2c(Cl)cc(Cl)cc2[nH]1

Ki ([10]; PDB entry 1JYS): 300 µM
SMILES: Nc1ncnc2nc[nH]c12

Ki ([4]; PDB entry 1Y20): 4.8 µM
SMILES: NC1(C(=O)O)CC1

Ki ([4]; PDB entry 1PB9): 241 µM
SMILES: N[C@@H]1CONC1=O

Ki ([11]; PDB entry 1ETT): 1.3 µM
SMILES: Cc1ccc(S(=O)(=O)N[C@@H](Cc2ccc(C(=N)N)cc2)C(=O)N2CCCCC2)cc1

Ki ([11]; PDB entry 1BMN): 0.0036 µM
SMILES: N=C(N)N1CCC[C@H](C(=O)NC[C@@H]2CCCN2C(=O)[C@H](CO)NS(=O)(=O)c2ccc3ccccc3c2)C1

Ki ([12]; PDB entry 1VGC): 1.2 µM
SMILES: CC(=O)N[C@H]([Al])Cc1ccc(Cl)cc1

Ki ([11]; PDB entry 1BMM): 0.079 µM
SMILES: NC(N)=NCCCC(=O)NC[C@@H]1CCCN1C(=O)[C@H](CO)NS(=O)(=O)c1ccc2ccccc2c1

SMILES: CCC(CC)O[C@@H]1C=C(C(=O)O)C[C@H](N)[C@H]1NC(C)=O
Ki [13]: 1.77 µM

Ki ([14]; PDB entry 1F28): 0.016 µM
SMILES: Cc1nc2ccc3ccc(CNc4ccc5c(c4)CN([C@@H](CCC(=O)O)C(=O)O)C5=O)cc3c2c(=O)[nH]1

Ki ([11]; PDB entry 1NT1): 0.0013 µM
SMILES: O=C1COc2ccc(Cl)cc2CNC(=O)[C@@H]2CCCN2C(=O)[C@@H](C2CCCCC2)NC(=O)CCN1

Ki ([5]; PDB entry 1PPK): 0.022 µM
SMILES: CCOC(=O)CP(=O)(O)[C@H](CC(C)C)NC(=O)[C@@H](NC(=O)[C@@H](NC(=O)CC(C)C)C(C)C)C(C)C

Ki ([12]; PDB entry 2VGC): 5.76 µM
SMILES: CC(=O)N[C@@H]([Al])Cc1ccc(Cl)cc1

Ki ([6]; PDB entry 1KTI): 370 µM
SMILES: CC(=O)NC(=O)N[C@@H]1O[C@H](CO)[C@@H](O)[C@H](O)[C@H]1O

Ki ([5]; PDB entry 1APV): 0.001 µM
SMILES: CNC(=O)C(F)(F)C(O)(O)[C@H](CC(C)C)NC(=O)[C@@H](NC(=O)[C@@H](NC(=O)CC(C)C)C(C)C)C(C)C

Ki ([12]; PDB entry 4VGC): 0.127 µM
SMILES: CC(=O)N[C@@H]([Al])Cc1cccc2ccccc12

Ki ([14]; PDB entry 1F4G): 0.33 µM
SMILES: O=C(O)CCNC(=O)[C@H]1CCCN1S(=O)(=O)c1ccc(C(=O)N[C@@H](CCC(=O)O)C(=O)O)cc1

Ki ([11]; PDB entry 1ZGI): 4.6 µM
SMILES: FC(F)(CNc1nccc2oc(Cc3ccccc3-n3cncn3)nc12)[C@H]1CCCCN1

Ki [15]: 4000 µM
SMILES: O=C(O)c1cccc(O)c1

SMILES: Nc1ncnc2c1ccn2[C@@H]1O[C@H](CO)[C@@H](O)[C@H]1O
Ki ([16]; PDB entry 1PR5): 120 µM

Ki ([17]; PDB entry 3F6G): 19 µM
Ki ([17]; PDB entry 3F6H): 19 µM
SMILES: CC[C@H](C)[C@H](N)C(=O)O

Ki ([1]; PDB entry 3F5L): 191 µM
SMILES: OC[C@H]1OC(O[C@@H]2[C@@H](O)[C@H](O)O[C@H](CO)[C@H]2O)[C@H](O)[C@@H](O)[C@@H]1O (some centres not stated)

Ki ([12]; PDB entry 3VGC): 3.11 µM
SMILES: CC(=O)N[C@H]([Al])Cc1cccc2ccccc12

SMILES: NCc1ccccc1
Ki ([3]; PDB entry 2BZA): 1580 µM

Ki ([5]; PDB entry 1PPM): 1.6 µM
SMILES: COC(=O)[C@H](Cc1ccccc1)OP(=O)(O)[C@H](CC(C)C)NC(=O)[C@H](C)NC(=O)[C@H](C)NC(=O)OCc1ccccc1

Ki ([14]; PDB entry 1JUJ): 0.109 µM
SMILES: Nc1nc2[nH]cc(CCc3ccc(C(=O)N[C@@H](CCC(=O)O)C(=O)O)cc3)c2c(=O)[nH]1

Ki ([16]; PDB entry 1A69): 5 µM
Ki ([16]; PDB entry 1PR1): 5 µM
SMILES: O=c1[nH]cnc2c([C@@H]3O[C@H](CO)[C@@H](O)[C@H]3O)[nH]nc12

Ki ([10]; PDB entry 1Y6Q): 2e-06 µM
SMILES: CSC[C@H]1CN(Cc2c[nH]c3c(N)ncnc23)C[C@@H]1O

Ki ([18]; PDB entry 1HQF): 10 µM
SMILES: NC(=NCCC[C@H](N)C(=O)O)NO

Ki ([5]; PDB entry 1BXO): 0.0001 µM
SMILES: COC(=O)[C@@H]1Cc2cccc(c2)CNC(=O)C[C@H](NC(=O)[C@@H](NC(=O)CC(C)C)C(C)C)C(=O)N[C@@H](CC(C)C)P(=O)(O)O1

Ki ([5]; PDB entry 1PPL): 0.0028 µM
SMILES: COC(=O)[C@H](Cc1ccccc1)OP(=O)(O)[C@H](CC(C)C)NC(=O)[C@@H](NC(=O)[C@@H](NC(=O)CC(C)C)C(C)C)C(C)C

Ki ([7]; PDB entry 1LOS): 64 nM
SMILES: O=c1cnn([C@@H]2O[C@H](COP(=O)(O)O)[C@@H](O)[C@H]2O)c(=O)[nH]1

Ki ([5]; PDB entry 1APW): 0.01 µM
SMILES: CNC(=O)C(F)(F)[C@H](O)[C@H](CC(C)C)NC(=O)[C@@H](NC(=O)[C@@H](NC(=O)CC(C)C)C(C)C)C(C)C

Ki ([19]; PDB entry 3GI4): 0.016 nM
SMILES: CC(C)CN(C[C@@H](O)[C@H](Cc1ccccc1)NC(=O)[C@@H]1CN(c2cccc(C(F)(F)F)c2)C(=O)O1)S(=O)(=O)c1ccc2c(c1)OCO2

Ki ([11]; PDB entry 1UVT): 0.023 µM
SMILES: Cc1cc(NS(=O)(=O)c2ccccc2)cc(OCCNc2ccncc2)c1

Ki ([19]; PDB entry 1HPO): 0.6 nM
SMILES: N#Cc1ccc(S(=O)(=O)Nc2cccc([C@@H](c3c(O)c4c(oc3=O)CCCCCC4)C3CC3)c2)cc1

Ki ([18]; PDB entry 1T4S): 3600 µM
SMILES: CC(C)[C@H](N)C(=O)O

Ki ([9]; PDB entry 3AXM): 8.5 µM
SMILES: O=C(O)[C@H](O)[C@@H](O)[C@H](O)[C@H](O)COP(=O)(O)O

Ki ([6]; PDB entry 1P2G): 7400 µM
SMILES: OC[C@H]1O[C@@H]2O[C@H]3[C@H](O)[C@@H](O)[C@@H](O[C@H]4[C@H](O)[C@@H](O)[C@@H](O[C@H]5[C@H](O)[C@@H](O)[C@@H](O[C@H]6[C@H](O)[C@@H](O)[C@@H](O[C@H]7[C@H](O)[C@@H](O)[C@@H](O[C@H]8[C@H](O)[C@@H](O)[C@@H](O[C@H]9[C@H](O)[C@@H](O)[C@@H](O[C@H]1[C@H](O)[C@H]2O)O[C@@H]9CO)O[C@@H]8CO)O[C@@H]7CO)O[C@@H]6CO)O[C@@H]5CO)O[C@@H]4CO)O[C@@H]3CO

Ki ([11]; PDB entry 1OYT): 0.057 µM
SMILES: N=C(N)c1ccc([C@H]2[C@H]3C(=O)N(Cc4ccc(F)cc4)C(=O)[C@H]3[C@@H]3CCCN32)cc1

Ki ([16]; PDB entry 1PWY): 90 µM
SMILES: Nc1nc2c(ncn2COCCO)c(=O)[nH]1
